Measured values taken from patent US7205275.

Chains of the proteins cited; added tags and fusions are not shown. Residues count along the entry.
UniProt O15123, 19-496: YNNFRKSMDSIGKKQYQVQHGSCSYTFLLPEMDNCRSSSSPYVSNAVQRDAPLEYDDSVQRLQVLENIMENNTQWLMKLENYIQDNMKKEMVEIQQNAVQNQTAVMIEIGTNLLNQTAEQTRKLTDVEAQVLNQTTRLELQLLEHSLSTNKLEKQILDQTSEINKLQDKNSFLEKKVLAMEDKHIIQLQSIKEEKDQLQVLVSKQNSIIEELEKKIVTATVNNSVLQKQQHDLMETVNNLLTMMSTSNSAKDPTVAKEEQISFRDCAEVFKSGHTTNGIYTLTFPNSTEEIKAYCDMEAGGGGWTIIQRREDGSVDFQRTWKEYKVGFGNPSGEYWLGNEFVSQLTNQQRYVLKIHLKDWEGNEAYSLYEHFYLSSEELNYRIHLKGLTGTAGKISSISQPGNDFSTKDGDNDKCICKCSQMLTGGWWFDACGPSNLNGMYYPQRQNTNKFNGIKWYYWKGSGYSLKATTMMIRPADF
UniProt O35608, 19-496: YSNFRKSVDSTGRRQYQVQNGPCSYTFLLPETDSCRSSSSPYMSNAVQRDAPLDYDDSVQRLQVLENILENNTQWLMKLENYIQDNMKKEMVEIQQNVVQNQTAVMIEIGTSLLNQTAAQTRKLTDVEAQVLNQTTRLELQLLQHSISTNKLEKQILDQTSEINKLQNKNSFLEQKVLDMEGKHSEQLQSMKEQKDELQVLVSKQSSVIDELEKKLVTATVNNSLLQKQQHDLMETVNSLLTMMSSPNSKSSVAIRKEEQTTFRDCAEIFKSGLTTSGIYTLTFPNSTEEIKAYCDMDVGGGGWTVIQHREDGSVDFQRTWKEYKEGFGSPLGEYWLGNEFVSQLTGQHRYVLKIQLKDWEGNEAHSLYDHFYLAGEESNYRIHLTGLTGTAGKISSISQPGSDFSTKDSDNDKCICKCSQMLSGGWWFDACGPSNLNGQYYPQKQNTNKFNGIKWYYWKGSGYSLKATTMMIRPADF
UniProt Q15389, 20-498: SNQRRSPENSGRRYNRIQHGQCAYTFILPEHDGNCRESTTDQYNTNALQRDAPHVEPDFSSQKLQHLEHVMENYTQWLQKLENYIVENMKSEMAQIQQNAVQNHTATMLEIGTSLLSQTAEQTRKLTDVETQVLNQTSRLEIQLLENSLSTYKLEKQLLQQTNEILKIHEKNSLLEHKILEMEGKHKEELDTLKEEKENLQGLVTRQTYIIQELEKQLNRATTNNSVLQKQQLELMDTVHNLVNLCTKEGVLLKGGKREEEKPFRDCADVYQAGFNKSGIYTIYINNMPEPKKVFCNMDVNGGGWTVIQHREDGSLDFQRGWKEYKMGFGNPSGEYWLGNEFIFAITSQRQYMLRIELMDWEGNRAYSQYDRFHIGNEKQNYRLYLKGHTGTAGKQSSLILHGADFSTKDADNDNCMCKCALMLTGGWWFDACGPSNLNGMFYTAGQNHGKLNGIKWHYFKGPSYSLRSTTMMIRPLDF

Assays:
Test in all cases: competition ELISA vs Tie-2
Conditions in all cases: designed binder
[1] = target: human Ang-2 (human) (UniProt O15123)
[2] = target: mouse Ang-2 (mouse) (UniProt O35608)
[3] = target: human Ang-1 (human) (UniProt Q15389)

Measured: IC50

Negative Control Peptibody 4883
> 1000 nM: [1] | [2] | [3]
